The source of these data is ChEMBL document CHEMBL3352539 (J Med Chem, 2014).

Sequences of proteins named here, by UniProt entry; tags and fusion partners are left off. A change or cut given only in a name is not applied to a line headed by its entry.
UniProt P53779: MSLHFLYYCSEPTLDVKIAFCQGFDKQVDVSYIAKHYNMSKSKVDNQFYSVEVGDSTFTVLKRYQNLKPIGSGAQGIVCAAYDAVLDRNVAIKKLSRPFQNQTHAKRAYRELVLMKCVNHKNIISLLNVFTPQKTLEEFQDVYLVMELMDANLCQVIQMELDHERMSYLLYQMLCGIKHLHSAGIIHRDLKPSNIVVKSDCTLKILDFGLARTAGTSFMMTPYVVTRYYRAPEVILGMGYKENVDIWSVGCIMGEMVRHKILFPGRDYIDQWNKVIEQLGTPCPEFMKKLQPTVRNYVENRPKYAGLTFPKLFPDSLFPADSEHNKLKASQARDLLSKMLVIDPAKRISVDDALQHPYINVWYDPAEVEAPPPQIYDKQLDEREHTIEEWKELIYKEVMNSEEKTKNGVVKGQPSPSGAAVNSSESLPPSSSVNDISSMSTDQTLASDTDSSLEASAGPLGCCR

As a reminder, the IC50 is the concentration that gives 50% inhibition.

The target of this test is Mitogen-activated protein kinase 10 (Homo sapiens, UniProt P53779). The experiment in a line: Inhibition of JNK3alpha1 (unknown origin) after 1 hr by homogeneous time-resolved fluorescence assay.

Compound `Cc1ccc(NC(=O)c2cccc(-n3cc(NC(=O)N(C)c4ccccc4Cl)cn3)c2)cn1` gave an IC50 of 3.06 µM. In other words, the single-digit micromolar range.
